Data taken from patent US20260382588A1, “COMPOUNDS CONTAINING A HYDROXYPHENYL MOIETY AND THEIR USE” (published 2026).

Amino acid sequences for entries named in this document (tags omitted). Residues count along the entry.
UniProt O75460, 19-977 limits assumed: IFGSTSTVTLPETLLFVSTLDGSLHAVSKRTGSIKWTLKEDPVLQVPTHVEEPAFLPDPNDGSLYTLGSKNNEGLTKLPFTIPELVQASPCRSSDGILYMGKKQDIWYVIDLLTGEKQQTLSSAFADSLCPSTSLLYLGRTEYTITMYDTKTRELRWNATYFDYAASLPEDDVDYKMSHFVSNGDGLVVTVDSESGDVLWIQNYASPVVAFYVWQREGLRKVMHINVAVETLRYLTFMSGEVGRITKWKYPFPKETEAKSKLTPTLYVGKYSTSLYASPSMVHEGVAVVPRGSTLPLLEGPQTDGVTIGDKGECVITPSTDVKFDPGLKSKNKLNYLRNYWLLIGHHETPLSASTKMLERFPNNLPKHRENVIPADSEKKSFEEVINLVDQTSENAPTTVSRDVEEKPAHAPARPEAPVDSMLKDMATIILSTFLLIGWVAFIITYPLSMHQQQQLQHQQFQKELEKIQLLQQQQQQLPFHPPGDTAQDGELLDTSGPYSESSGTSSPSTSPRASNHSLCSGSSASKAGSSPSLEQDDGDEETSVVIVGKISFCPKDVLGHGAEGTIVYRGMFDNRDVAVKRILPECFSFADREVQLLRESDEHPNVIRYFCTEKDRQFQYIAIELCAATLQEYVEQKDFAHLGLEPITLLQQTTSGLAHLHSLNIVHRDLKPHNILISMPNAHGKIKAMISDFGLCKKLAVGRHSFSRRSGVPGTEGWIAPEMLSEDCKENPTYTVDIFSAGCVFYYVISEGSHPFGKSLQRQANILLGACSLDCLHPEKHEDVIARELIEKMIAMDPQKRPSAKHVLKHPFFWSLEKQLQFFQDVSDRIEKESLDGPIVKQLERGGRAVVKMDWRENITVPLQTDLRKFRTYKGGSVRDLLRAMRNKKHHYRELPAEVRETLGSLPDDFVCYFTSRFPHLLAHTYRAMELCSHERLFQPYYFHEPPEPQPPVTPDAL

Key:
Xbp1 mRNA splicing = Xbp1 mRNA splicing in orthotopic U87-luc tumors in mice; conditions: i.p. 300 μg/kg daily
Text: Tumor cell orthotopic implantation—Tumor cells (U87-Luc (A. Jabouille, et al., Oncotarget, 2015, 6, 24922-24934)) were implanted into the brain of immunodeficient NMRI-Foxnlnu/Foxn1nu, 8 weeks old male mice (Janvier Laboratories, Laval, France). All animal procedures met the European Community Directive guidelines (Agreement B35-238-40 Biosit Rennes, France/No DIR 13480) and were approved by the local (University of Rennes) ethics committee and ensuring the breeding and the daily monitoring of the animals in the best conditions of wellbeing according to the law and the rule of 3R (Reduce-Refine-Replace). […] After incising the scalp, the stereotaxic coordinates were calculated for injection of tumor cells into a specific point of the brain, and reproducible for all the mice used. […]
Mouse treatments—Four days after tumor cells implantation, compound 28 (Z4P) treatments were started consisting in treatments of 300 μg/kg/day intraperitonially. For the RNA quantification experiment, performed on tumors generated in mice, three mice per group were treated according to the methods above. […]
Quantitative real-time PCR—Total RNA was prepared using TRIzol reagent (Invitrogen, Carlsbad, CA, USA). […] Each sample was extract individually for RNA and performed the quantification of mRNA levels by qPCR for several targets. […]

IRE1 = IRE1 (Homo sapiens, UniProt O75460); test: Luciferase assay in cells; conditions: read-out: IC50 (Luciferase); Table 5
Procedure: Luciferase assays—Cells were seeded in 96-well plate. Cells were treated with increasing concentration of Z4 and analogues. Medium was discarded and the plate was tapped to remove residual medium. 100 μL of lysis buffer (25 mM Tricine pH 7.8; 15 mM Potassium Phosphate pH 7.8; 15 mM MgSO4; 4 mM EGTA; 1% Triton X-100; 1 mM DTT) were added per well and incubated for 20 minutes at RT. 50 μL were transferred to a white 96-well plate and 50 μL of substrate buffer (25 mM Tricine pH 7.8; 15 mM Potassium Phosphate pH 7.8; 15 mM MgSO4; 4 mM EGTA; 1% Triton X-100; 1 mM DTT; 1 mM ATP; 0.2 mM luciferin) were added in each well and the luminescence was read.
IRE1—Mediated In Vitro RNase Assay and Luciferase Assay

[1] = tested on: U87-luc orthotopic GB tumors; test: Orthotopic U87-luc GB mouse model: tumor growth, survival and relapse
Text: Tumor cell orthotopic implantation—Tumor cells (U87-Luc (A. Jabouille, et al., Oncotarget, 2015, 6, 24922-24934)) were implanted into the brain of immunodeficient NMRI-Foxnlnu/Foxn1nu, 8 weeks old male mice (Janvier Laboratories, Laval, France). All animal procedures met the European Community Directive guidelines (Agreement B35-238-40 Biosit Rennes, France/No DIR 13480) and were approved by the local (University of Rennes) ethics committee and ensuring the breeding and the daily monitoring of the animals in the best conditions of wellbeing according to the law and the rule of 3R (Reduce-Refine-Replace). U87-Luc cells were implanted in the mouse brain by intracerebral injection followed by tumor growth monitoring using bioluminescence (PhotonIMAGER™ systems, BIOSPACE LAB). The mice were anesthetized intraperitoneally (i.p. mix Xylazine 10 mg/kg and Ketamin 60 mg/kg) and then fixed on a stereotactic frame. This framework makes it possible to manipulate the brains of living animals, and to reach isolated areas of the brain precisely relative to markings visible to the naked eye through the use of three-dimensional coordinates. After incising the scalp, the stereotaxic coordinates were calculated for injection of tumor cells into a specific point of the brain, and reproducible for all the mice used. In the study, the tumor cells (5×10^4 cells per mice in 1 μL) were injected at Bregma 0, 2.2 mm to the left of the bregma and 3.2 mm deep to perform the implantation at the level of the striatum.
Mouse treatments—Four days after tumor cells implantation, compound 28 (Z4P) treatments were started consisting in treatments of 300 μg/kg/day intraperitonially. For the RNA quantification experiment, performed on tumors generated in mice, three mice per group were treated according to the methods above. Mice were sacrificed at day 34 and the brains were removed and extract the tumor. The samples were used to extract RNA for the analysis, as described below.
For the survival experiment, performed on tumors generated in mice, co-treatment with TMZ was performed one week after the beginning of compound 33 (Z4) treatment (n=7 per group for the TMZ and COMBO, n=8 per group for the control and compound 28 (Z4P)). The animals were injected with 10 mg/kg/day of TMZ delivered intraperitoneally for ten days. All the treatments were performed with 2 days of rest each week. Survival was measured as the time between implantation and sacrifice, which was performed by cervical dislocation in case of critical clinical signs or loss of weight >10%.
Bioluminescence monitoring—Mice were evaluated with in vivo bioluminescence imaging every 3 days starting from the day 4, for the first week, and weekly onward for tumor progression and followed for signs of neurologic deterioration daily. […]

Cc1ccc(C)c(NC(=O)NC(C)CCc2ccc(O)cc2)c1 (racemic)
splicing of Xbp1 mRNA in tumors (Xbp1 mRNA splicing; 34 days (FIG. 5B)): decreased the splicing of Xbp1 mRNA | crossing of the BBB (Xbp1 mRNA splicing; implied from tumor Xbp1 mRNA splicing (FIG. 5B)): crossed the BBB | IC50 (IRE1): 1.62 µM | tumor growth or mouse survival ([1]; compound alone, i.p. 300 μg/kg daily (FIGS. 4B and 4C)): no effect on tumor growth or mouse survival | tumor relapse, co-treatment with TMZ ([1]; compound i.p. plus TMZ, over 200 days (FIG. 5D)): no tumor relapse was observed | tumor growth, co-treatment with TMZ ([1]; i.p. 300 μg/kg daily from D4 plus TMZ 10 mg/kg, 10 daily treatments (FIG. 5D)): significantly decreased tumor growth
